These results are taken from BindingDB's records for doi:10.1016/j.bmcl.2016.06.017 (University of Pittsburgh, 2016).

The structures appear in SMILES notation.

The assay can be described thus: Inhibition of IL6-induced STAT3 in human CAL33 cells.

Turning to `COc1ccc(C2=Nn3c(nnc3-c3cc(-c4ccc(Cl)cc4)n[nH]3)SC2C)cc1` (stereo unspecified), inhibition was half-maximal at 5.72 µM (IC50).

As usually defined, the IC50 is the concentration at which inhibition is half-maximal. The low end stands for greater potency in that assay, the high end for weaker potency in that assay.
